Data on 1 molecule can be found in US20240391959A1 (Bicycle, published 2024).

By UniProt entry, the sequences of proteins in these tests, tags left out. Residues count along the entry.
UniProt P02786, 89-760 limits assumed: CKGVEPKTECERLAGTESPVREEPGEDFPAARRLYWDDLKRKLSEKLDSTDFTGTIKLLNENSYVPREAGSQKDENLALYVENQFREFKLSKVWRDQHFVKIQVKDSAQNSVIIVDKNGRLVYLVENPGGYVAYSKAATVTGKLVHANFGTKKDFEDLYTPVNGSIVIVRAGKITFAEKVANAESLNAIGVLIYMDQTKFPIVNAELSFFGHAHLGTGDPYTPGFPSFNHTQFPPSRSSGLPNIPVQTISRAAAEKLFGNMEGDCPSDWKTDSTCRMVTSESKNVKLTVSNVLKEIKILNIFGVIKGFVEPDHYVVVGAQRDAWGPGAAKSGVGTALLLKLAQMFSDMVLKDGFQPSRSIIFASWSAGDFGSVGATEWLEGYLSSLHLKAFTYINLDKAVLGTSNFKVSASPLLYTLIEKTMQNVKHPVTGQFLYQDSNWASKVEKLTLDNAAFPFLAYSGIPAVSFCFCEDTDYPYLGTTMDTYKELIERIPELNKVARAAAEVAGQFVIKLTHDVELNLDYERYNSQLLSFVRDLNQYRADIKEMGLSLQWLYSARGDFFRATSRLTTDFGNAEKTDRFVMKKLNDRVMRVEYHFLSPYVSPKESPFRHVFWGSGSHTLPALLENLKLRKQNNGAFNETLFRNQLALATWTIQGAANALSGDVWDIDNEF

Usually Ki stands for the dissociation constant of the complex between target and ligand, obtained from inhibition or displacement.

The target in assay [1] is T1, Recombinant human transferrin receptor 1 (TfR1), His6-tagged, a.a. 89-760 (human, UniProt P02786 89-760).
T1 construct: range 89-760; SPR used ACRO Biosystems CD1-H5243 (His6, a.a. 89-760); also called Human TfR1; CD71; not shown: His6 tag
Kind of assay: FP competition, competitor BCY15768.

Assay [2] concerns the target T1, Recombinant human transferrin receptor …. Kind of assay: FP competition, competitor BCY15768. The source holds these as a separate data set.

Like-named read-outs stand apart in the source and are kept apart here.

B1: BCY18032 (peptide)
peptide: NXNCSPDAHLGCISYC
modifications: N-methyl-tryptophan [NMeTrp] in N-terminal N[NMeTrp]N; Cys Ci, Cii, Ciii on TATB scaffold
Regarding B1, the inhibition constant (Ki) was determined as 105 nM in assay [1] and 77 nM in assay [2].
